PubChem BioAssay AID651958 (The Scripps Research Institute Molecular Screening Center, 2012)
This is a selection; strong and weak results do not stand in their true shares. Some of these compounds have results that are not shown, active ones among them. Activity calls are given as the source filed them. Rule as the data show it: active = inhibition above about 30%; inactive = the rest.

Test system: Crimean-Congo hemorrhagic fever virus L polyprotein viral ovarian tumor (vOTU) protease domain
Experiment: CCHFV vOTU protease inhibitors, primary screen, biochemical, Pep-AMC substrate, fluorescence (AID 651958); also: 0% = vehicle wells with enzyme and 100% = no enzyme wells
Conditions: at 11.5 µM, hits give high values

SMILES | inhibition
Cc1ccc(C(=O)NCC2(N3CCCCC3)CCCCC2)cc1 | inactive: -17.9%
CC(C)N1C(=O)CC2(CCN(CCOC(=O)C(O)(c3ccccc3)c3ccccc3)CC2)C1=O | inactive: 16.7%
COc1cc(SC)ccc1C(=O)NCC1(N(C)C)CCCCC1 | inactive: 6.5%
CCN(CC)CC(C)C(C)OC(=O)C(O)(c1ccccc1)c1ccccc1 (stereo unspecified) | inactive: 9.71%
CN1[C@@H]2CC[C@H]1CC(OC(=O)C(O)(c1ccccc1)c1ccccc1)C2 (stereo partly specified) | inactive: 5.5%
O=C(NCC1(N2CCCCC2)CCCCC1)c1cc([N+](=O)[O-])ccc1Cl | inactive: 9.26%
O=C(NCC1(N2CCCCC2)CCCCC1)c1cccc(Br)c1 | inactive: 5.48%
CCN1CCCC(OC(=O)C2(O)c3ccccc3C=Cc3ccccc32)C1 (stereo unspecified) | inactive: 7.77%
Cc1cc(C(=O)NCC2(N3CCCCC3)CCCCC2)ccc1[N+](=O)[O-] | inactive: -14.1%
COc1ccc(C(=O)NCC2(N(C)C)CCCCC2)cc1 | inactive: -13.4%
O=C(NCC1(N2CCCCC2)CCCCC1)c1cc(F)c(F)cc1Cl | inactive: 10.8%
C=CCN1CCN(CCOC(=O)C(O)(c2ccccc2)c2ccccc2)CC1 | inactive: -1.75%
CN(C)c1ccc(C(=O)NCC2(N(C)C)CCCCC2)cc1 | inactive: 10.1%
CN(C)C1CCCC1OC(=O)C(O)(c1ccccc1)c1ccccc1 (stereo unspecified) | inactive: -0.65%
Cc1ccccc1C(=O)NCC1(N2CCCCC2)CCCCC1 | inactive: -4.72%
O=C(NCC1(N2CCCCC2)CCCCC1)c1cccc(Cl)c1 | inactive: -2.37%
COc1ccc(Cl)cc1C(=O)NCC1(N(C)C)CCCCC1 | inactive: -3.83%
COc1cccc(C(=O)NCC2(N3CCCCC3)CCCCC2)c1 | inactive: -0.8%
COc1cc(C(=O)NCC2(N(C)C)CCCCC2)c([N+](=O)[O-])cc1OC | inactive: 16.7%
CN(C)C1(CNC(=O)c2ccc(Br)cc2)CCCCC1 | inactive: -9.4%
CN(C)c1cccc(C(=O)NCC2(N(C)C)CCCCC2)c1 | inactive: -1.97%
O=C(OCCN1CCCC1)C(O)(c1ccccc1)c1ccccc1 | inactive: 0.28%
CC(C)Oc1ccc(C(=O)NCC2(N(C)C)CCCCC2)cc1 | inactive: -3.5%
COc1ccc(Br)c(C(=O)NCC2(N3CCCCC3)CCCCC2)c1 | inactive: 3.9%
C=C(C)C#CC(O)(C(=O)OC1CCN(C)CC1)c1ccccc1 (stereo unspecified) | inactive: -9.26%
O=C(OC1CN2CCC1CC2)C(CO)(c1ccccc1)c1ccccc1 (stereo unspecified) | inactive: 2.28%
